In patent US5670479A, “α-ketoamide derivatives as inhibitors of thrombosis” (Corvas International, Inc., priority 1994, dated 1997):

Columns and labels:
a-thrombin [1] = target: T1, a-thrombin (Homo sapiens, UniProt P00734); test: Thrombin-induced clotting of purified fibrinogen; assay type: biochemical; conditions: for inhibition of thrombin-catalyzed fibrin generation (relative clotting time): purified human fibrinogen, FIG. 2
Procedure: Compound 8 and Hirulog-1 (compound 25) were compared in an assay designed to measure the inhibition of thrombin using purified fibrinogen as the substrate using a modification of the method described by Witting, J. I. et al., Biochem. J. 283:737 (1992). Compound 8 or Hirulog-1 (compound 25) were pre-incubated with a-thrombin over a broad concentration range at 25° C. in 300 mL of Buffer A (150 mM NaCl, 30 mM CaCl2, 10 mM imidazole, 8.8 mg/mL polyethylene glycol (PEG 6000), pH 7.4) for 0, 30, and 60 minutes prior to the addition 100 mL of purified human fibrinogen (American Diagnostica, Greenwich, Conn.) which had been reconstituted in Buffer B (30 mM NaCl, 10 mM imidazole, pH 7.4) to a concentration of 8 ng/mL. The clotting time of fibrinogen following the addition of the thrombin/inhibitor complex was measured optically using the Coag-A-Mate XC automated coagulometer (General Diagnostics, Organon Technica, Oklahoma City, Okla.).
In this figure, Compound 8 (solid symbols) and Hirulog-1 (compound 25; open symbols) were preincubated with a-thrombin for 0 (m,1) 30 (Δ,s), and 60 (o,n) minutes prior to the addition of fibrinogen.
This inhibition is reflected as an increase in the relative clotting time which is the ratio of the […]. The control clotting time in this assay is 16.2±0.78 sec.

washed human platelets = test: Thrombin-induced aggregation in washed human platelets; assay type: cell-based; conditions: 20 nM (compound 8); same or higher concentrations (Hirulog-1), FIG. 4
Procedure: Washed human platelets were prepared from freshly isolated venous blood obtained from normal, healthy volunteers who had not taken any medication which might affect platelet function, according to the procedure of Connolly, T. M. et al., J. Biol. Chem., 267: 6893. (1992). Inhibitors, were added in a volume of […] to […] of prewarmed washed platelets in a siliconized glass cuvette (Chronolog Corp., Hayertown, Pa.) followed by […] of 0.25M CaCl2. The rate and extent of aggregation were measured for 5-15 minutes by the change in light transmission in a stirred cuvette, following the addition of […] of a-thrombin (final concentration 2 nM), using a Chronolog Whole Blood Aggregometer equipped with the Aggro/Link data acquisition system (Chronolog Corp., Hayertown, Pa.). […] The inhibitory effect of the test compounds was measured over a broad concentration range and is reported as the concentration required to inhibit aggregation by 50% (IC50).

a-thrombin [2] = target: T1, a-thrombin; test: Inhibition of fluid-phase thrombin (FPA generation in citrated plasma); assay type: biochemical; conditions: 60 min, 37° C., compound 8 18.75 nM, Hirulog-1 500 nM, rHIR 4 nM, FIG. 5A
Procedure: I. et.al. J. Clin. Invest., 86: 385-391 (1990). Human a-thrombin (2 U/ml) was incubated with citrated plasma for 60 minutes at 37° C. in the absence or presence of varying concentrations of each of the inhibitors. At timed intervals, 100 μl aliquots were removed and the reaction was terminated by the addition of […] (5 μM, final concentration). Unreacted fibrinogen was then precipitated with ethanol, and the ethanol supernatants were assayed for fibrinopeptide A (FPA). Thrombin addition to plasma results in rapid FPA generation which reaches a plateau in minutes as the thrombin is complexed and inactivated by fluid-phase antiproteases.(e.g. antithrombin III).

clot-bound a-thrombin = clot-bound a-thrombin (Homo sapiens, UniProt P00734); test: Inhibition of clot-bound thrombin (FPA generation in citrated plasma); assay type: biochemical; conditions: 60 min, 37° C., compound 8 18.75 nM, Hirulog-1 500 nM, rHIR 4 nM, FIG. 5B
Procedure: The relative inhibition of fluid-phase and clot-associated thrombin activity by compound 8 was compared to Hirulog-1 (compound 25) and rHIR, using the methodologies of Weitz, J. I. et.al. J. Clin. Invest., 86: 385-391 (1990).
Plasma clots were formed around wire hooks by the addition of CaCl2 (final concentration, 25 mM) to 500 μl aliquots of citrated plasma. After aging the clots for 60 minutes at 37° C. with constant agitation, the clots were washed 10 times with 2 ml aliquots of 0.1M NaCl buffered with 0.05M Tris-HCL, pH 7.4 over an 18 hour period. The washed clots were then incubated in 1 ml aliquots of citrated plasma for 60 minutes at 37° C. in the absence or presence of the various inhibitors. At timed intervals, 100 μl aliquots were removed and the reaction was terminated by the addition of the irreversible serine protease inhibitor, D-phenylalanyl-prolinyl-argininyl-CH2 Cl.
Unreacted fibrinogen was precipitated with ethanol, and the ethanol supernatants were then assayed for FPA.
In this figure, the control (no inhibitor) group (o) was compared to compound 8 at a final concentration of 18.75 nM (1), Hirulog-1 at a final concentration of 500nM (-) and rHIR at a final concentration of 4 nM(t). […]

rabbit = test: Rabbit study of venous thrombus growth; assay type: in vivo; conditions: rabbit jugular vein, 120 min infusion, assessed at 180 min, FIG. 7
Procedure: To determine the duration of antithrombotic efficacy with Compound 8 following the termination of therapy, this inhibitor was compared to several other well-known antithrombotic agents in a rabbit model of venous thrombus growth described by Levi, M.et al., J. Thrombosis Haemostas., 66: 218-221 (1991). In this model, a thrombin-induced clot is formed in the jugular vein of an anesthetized rabbit. […] The infusion of test compound is continued for 120 minutes. Following this time, the extent of fibrin accretion is determined by comparing the amount of radiolabel incorporated into the clot versus circulating in the peripheral blood. At this time, the infusion of the test compound is stopped and the experiment continued for another 60 minutes. At 180 minutes, the extent of fibrin accretion is determined for the contralateral vessel. The data is expressed as "%Thrombus Growth" which is defined as (radioactivity in thrombus/radioactivity in blood)×100. In this protocol, TAP(recombinant tick anticoagulant protein, a selective inhibitor of factor Xa described by […]. et. al., J. Biol. […] Compound 8 was administered in two dosing regimens referred to as "Cmp8H" (1.0 mg/kg bolus +0.5 μg/kg/minute) and as "Cmp8M" (0.5mg/kg bolus +0.5μg/kg/minute). […]

[3] = test system: New Zealand white rabbits; test: Rabbit jugular vein thrombosis/fibrinolysis model; conditions: 0.5mg/kg bolus + 0.5 μg/kg/min for 120 min, versus rHIR, FIG. 8
baboons [4] = test: Baboon model of arterial thrombosis (Dacron vascular graft in AV shunt), systemic infusion
baboons [5] = test: Baboon hemostatic function (template bleeding time, coagulation tests)
baboons [6] = test: Baboon: duration of antithrombotic effect after limited 3 hour infusion; conditions: 3 hour infusion at 150 nmole/min/kg, followed to 24 hours
[7] = 37 nmol/kg/min group, Pre-dosing
[8] = 75 nmol/kg/min group, Pre-dosing
[9] = 150 nmol/kg/min group, Pre-dosing

CCCC(CCC)C(=O)N[C@@H](CC(=O)O)C(=O)N1CCC[C@H]1C(=O)N[C@@H](CCCNC(=N)N)C(=O)C(=O)NCC(=O)NCC(=O)NCC(=O)NCC(=O)NCC(=O)N[C@@H](CC(N)=O)C(=O)NCC(=O)N[C@@H](CC(=O)O)C(=O)N[C@@H](Cc1ccccc1)C(=O)N[C@@H](CCC(=O)O)C(=O)N[C@@H](CCC(=O)O)C(=O)N[C@H](C(=O)N1CCC[C@H]1C(=O)N[C@@H](CCC(=O)O)C(=O)N[C@@H](Cc1ccc(O)cc1)C(=O)N[C@@H](CC(C)C)C(=O)O)[C@@H](C)CC
proteolytic inactivation by thrombin on preincubation (a-thrombin [1]; preincubation with a-thrombin 0, 30, 60 minutes before fibrinogen): not proteolytically inactivated by thrombin
inhibition of thrombin-catalyzed fibrin generation (relative clotting time) (a-thrombin [1]): dose-dependently inhibit the generation of fibrin
inhibition of thrombin-catalyzed fibrin generation (relative clotting time) (a-thrombin [1]; listed as compound 8): significantly more potent than Hirulog-1
persistence of inhibition of aggregation over the 15 minute assay (washed human platelets): stable with no recovery of aggregation
inhibition of fluid-phase a-thrombin-mediated FPA generation (a-thrombin [2]): stable inhibition of FPA generation
inhibition of clot-bound a-thrombin-mediated FPA generation (clot-bound a-thrombin): stably inhibit clot-induced FPA generation
% Thrombus Growth after termination of infusion (rabbit): clear reduction in thrombus size
extent of endogenous fibrinolysis of a preformed venous clot [3]: greater degree of endogenous fibrinolysis
FPA (fibrinopeptide A) (baboons [4]; [7]): 3.0 ± 0.9 nM
PF-4 (platelet factor 4) (baboons [4]; [7]): 2.6 ng/mL
TAT (thrombin-antithrombin complexes) (baboons [4]; [7]): 5.9 ± 2.2 ng/mL
bTG (b-thromboglobulin) (baboons [4]; [7]): 2.1 ng/mL
FPA (fibrinopeptide A) (baboons [4]; 37 nmol/kg/min, 60 min): 1.45 ± 0.6 nM
PF-4 (platelet factor 4) (baboons [4]; 37 nmol/kg/min, 60 min): 1.5 ng/mL
TAT (thrombin-antithrombin complexes) (baboons [4]; 37 nmol/kg/min, 60 min): 2.6 ± 0.5 ng/mL
bTG (b-thromboglobulin) (baboons [4]; 37 nmol/kg/min, 60 min): 1.7 ng/mL
FPA (fibrinopeptide A) (baboons [4]; [8]): 3.3 ± 1.7 nM
PF-4 (platelet factor 4) (baboons [4]; [8]): 2.8 ng/mL
TAT (thrombin-antithrombin complexes) (baboons [4]; [8]): 6.5 ± 2.2 ng/mL
bTG (b-thromboglobulin) (baboons [4]; [8]): 2.6 ng/mL
FPA (fibrinopeptide A) (baboons [4]; 75 nmol/kg/min, 60 min): 0.75 ± 0.07 nM
PF-4 (platelet factor 4) (baboons [4]; 75 nmol/kg/min, 60 min): 1.9 ng/mL
TAT (thrombin-antithrombin complexes) (baboons [4]; 75 nmol/kg/min, 60 min): 2.2 ± 1.3 ng/mL
bTG (b-thromboglobulin) (baboons [4]; 75 nmol/kg/min, 60 min): 1.3 ng/mL
FPA (fibrinopeptide A) (baboons [4]; [9]): 1.7 nM
PF-4 (platelet factor 4) (baboons [4]; [9]): 1.3 ng/mL
TAT (thrombin-antithrombin complexes) (baboons [4]; [9]): 8.4 ± 4.2 ng/mL
bTG (b-thromboglobulin) (baboons [4]; [9]): 2.1 ng/mL
FPA (fibrinopeptide A) (baboons [4]; 150 nmol/kg/min, 60 min): 0.7 ± 0.4 nM
PF-4 (platelet factor 4) (baboons [4]; 150 nmol/kg/min, 60 min): 1.0 ng/mL
TAT (thrombin-antithrombin complexes) (baboons [4]; 150 nmol/kg/min, 60 min): 2.0 ± 0.8 ng/mL
bTG (b-thromboglobulin) (baboons [4]; 150 nmol/kg/min, 60 min): 0.5 ng/mL
Antithrombotic Effects ED50 (baboons [4]; dose which gives a 50% inhibition of platelet deposition): 35 nmol/kg/min
Platelet deposition (baboons [4]; i.v. infusion 37 nmol/kg/min, 60 min): 1.57 ± 0.03 × 10^9
Platelet deposition (baboons [4]; i.v. infusion 75 nmol/kg/min, 60 min): 1.17 ± 0.03 × 10^9
Platelet deposition (baboons [4]; i.v. infusion 150 nmol/kg/min, 60 min): 0.39 ± 0.14 × 10^9
Antihemostatic Effects APTT (baboons [5]; control 32 sec): > 300 s
APTT (baboons [5]; i.v. infusion 37 nmol/kg/min): > 300 s
APTT (baboons [5]; i.v. infusion 75 nmol/kg/min): > 300 s
APTT (baboons [5]; i.v. infusion 150 nmol/kg/min): > 300 s
patency of graft segments (baboons [6]): remained patent with no reduction in blood flow
platelet deposition after limited infusion (baboons [6]; FIG. 10): inhibition of platelet deposition for the duration of the experiment
